From ChEMBL document CHEMBL3886396, “Tricyclic amino containing compounds for treatment or prevention of symptoms associated with endocrine dysfunction” (2015)

Chains of the proteins cited; added tags and fusions are not shown.
UniProt O08565, whole entry: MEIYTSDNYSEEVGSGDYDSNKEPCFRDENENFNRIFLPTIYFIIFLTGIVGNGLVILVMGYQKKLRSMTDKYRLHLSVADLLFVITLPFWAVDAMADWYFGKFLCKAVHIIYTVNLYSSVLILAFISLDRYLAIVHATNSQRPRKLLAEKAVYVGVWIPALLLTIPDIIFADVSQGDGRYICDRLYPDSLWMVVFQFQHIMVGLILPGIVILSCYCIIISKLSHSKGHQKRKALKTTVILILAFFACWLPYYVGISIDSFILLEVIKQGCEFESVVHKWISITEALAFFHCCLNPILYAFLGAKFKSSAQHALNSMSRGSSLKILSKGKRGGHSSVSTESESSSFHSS

Biological target: C-X-C chemokine receptor type 4 (Rattus norvegicus, UniProt O08565)
Assay: Competitive Binding Assay: A synthetic 14-mer peptide, TN14003, was previously reported to block both SDF-1/CXCR4 mediated invasion in vitro and metastasis in vivo with a high specificity by binding competitively with its ligand SDF-1. Aa competitive binding assay using biotin-labeled TN14003 and streptavidin-conjugated rhodamine was developed to determine the binding efficiency of new chemical entities to the SDF-1 binding domain of CXCR4. Cells incubated with high affinity compounds show only blue nuclear staining, whereas compounds with low affinity result in staining CXCR4 (red; rhodamine) as well as the nuclei (blue; cytox blue).
Format: organism-based

Structure (SMILES)	IC50
Fc1ccccc1NCc1ccc(CNc2ncccn2)cc1	in the range around 100 nM
Fc1nc(F)nc(NCc2ccc(CNc3nc(F)nc(F)n3)cc2)n1	in the range around 100 nM
